# Tests used:
# rat [1] = settings: Prenatal developmental toxicity study; wistar; Injection; Subcutaneous; dose end: 21 PND; group: developmental; developmental / developmental landmark / incisor eruption / incisor eruption + developmental / developmental malformation / testes / delayed…
# rat [2] = settings: Prenatal developmental toxicity study, sprague dawley, Oral, Gavage/Intubation, dose end: 20 PND
# rat [3] = settings: Sub-acute repeat dose toxicity; Oral; Gavage/Intubation; dose end: 10 day; group: systemic; systemic / hematology / erythrocyte (rbc) count differential / erythrocyte (rbc) + systemic / hematology / hematocrit (hct) / hematocrit (…
# rat [4] = settings: Prenatal developmental toxicity study, Oral, Gavage/Intubation, dose end: 12 day
# rat [5] = settings: Prenatal developmental toxicity study, long evans, Oral, Feed
# rabbit [6] = settings: Prenatal developmental toxicity study; other; Oral; Feed; group: developmental; developmental / offspring survival late / [other] / [other] + systemic / in life observation / body weight / offspring (pup) weight
# hamster = settings: Prenatal developmental toxicity study, Syrian, Oral, Feed
# rat [7] = settings: Prenatal developmental toxicity study; Oral; Gavage/Intubation; dose end: 12 day; group: maternal; systemic / in life observation / body weight / body weight + systemic / in life observation / body weight / body weight gain + systemic / in…
# rabbit [8] = settings: Prenatal developmental toxicity study, Oral, Gavage/Intubation, dose end: 13 day
# rat [9] = settings: Prenatal developmental toxicity study, fischer, Oral, Feed, dose end: 28 day (PND)
# rat [10] = settings: Prenatal developmental toxicity study; other; Oral; Gavage/Intubation; dose end: 15 day; group: developmental; developmental / developmental malformation / general / [other]
# rat [11] = settings: Sub-acute repeat dose toxicity; sprague dawley; Oral; Gavage/Intubation; dose end: 14 day; group: systemic; systemic / clinical chemistry / 5' nucleotidase / 5' nucleotidase + systemic / clinical chemistry / alanine aminotransferase (alt/sgpt) / …
# rat [12] = settings: Prenatal developmental toxicity study, sprague dawley, Oral, Gavage/Intubation, dose end: 12 day
# rabbit [13] = settings: Sub-acute repeat dose toxicity; new zealand white; Oral; Gavage/Intubation; dose end: 4 day; group: systemic; systemic / in life observation / body weight / body weight + systemic / in life observation / food consumption / food consumption
# [14] = group: developmental, developmental / offspring survival late / viability index / viability index + developmental / developmental landmark / vaginal opening / …
# [15] = group: developmental, systemic / organ weight / liver / relative to body weight
# [16] = group: maternal, systemic / organ weight / liver / relative to body weight + reproductive / reproductive performance / fertility / fertility + reproductive…
# [17] = group: developmental, developmental / developmental malformation / bone / exencephaly + systemic / in life observation / body weight / fetal weight
# [18] = group: maternal, systemic / in life observation / body weight / body weight + systemic / in life observation / body weight / body weight gain + systemic / in…
# [19] = group: maternal, systemic / in life observation / food consumption / food consumption + systemic / organ weight / uterus / nos + reproductive / offspring …
# [20] = group: developmental, systemic / in life observation / body weight / offspring (pup) weight
# [21] = group: maternal, reproductive / reproductive performance / reproductive performance other / NOS + reproductive / offspring survival early / dead fetuses / …
# [22] = group: maternal, systemic / in life observation / food consumption / food consumption
# [23] = group: developmental, developmental / developmental malformation / general / [other]
# [24] = group: maternal, systemic / hematology / lymphocyte / lymphocyte
# [25] = group: developmental, developmental / offspring survival late / [other] / [other] + systemic / in life observation / body weight / offspring (pup) weight
# [26] = group: maternal, reproductive / reproductive performance / pregnancy / pregnancy
# [27] = group: developmental, systemic / in life observation / body weight / fetal weight
structure (smiles),measurement,setting,value
ClC1=C(Cl)[C@]2(Cl)[C@H]3[C@H]([C@@H]4C=C[C@H]3C4)[C@@]1(Cl)C2(Cl)Cl [Aldrin],LEL,rat [1],1 mg/kg/day
same,LOAEL,rat [1],> 1 mg/kg/day
same,NEL,rat [1],< 1 mg/kg/day
same,NOAEL,rat [1],≥ 1 mg/kg/day
"ClC(Cl)=C(c1ccc(Cl)cc1)c1ccc(Cl)cc1 [p,p'-DDE]",LOAEL,rat [2]; [14],> 50 mg/kg/day
same,NOAEL,rat [2]; [14],≥ 50 mg/kg/day
same,LEL,rat [2]; [15],5 mg/kg/day
same,NEL,rat [2]; [15],< 5 mg/kg/day
same,NEL,"rat [2]; group: maternal, systemic / organ weight / liver / relative to body weight",15 mg/kg/day
same,LEL,rat [2]; [16],50 mg/kg/day
same,LOAEL,rat [2]; [16],> 50 mg/kg/day
same,NOAEL,rat [2]; [16],≥ 50 mg/kg/day
CC(C)c1nnc2ccc(-c3ocnc3-c3cc(F)ccc3F)cn12,LEL,rat [3],250 mg/kg/day
same,LEL,rat [4]; [17],250 mg/kg/day
same,LOAEL,rat [4]; [17],> 2000 mg/kg/day
same,NEL,rat [4]; [17],< 250 mg/kg/day
same,NOAEL,rat [4]; [17],≥ 2000 mg/kg/day
same,LOAEL,rat [4]; [18],> 2000 mg/kg/day
same,NOAEL,rat [4]; [18],≥ 2000 mg/kg/day
same,LEL,rat [4]; [19],250 mg/kg/day
same,NEL,rat [4]; [19],< 250 mg/kg/day
II [Iodine],LEL,rat [5]; [20],125 mg/kg/day
same,LOAEL,rat [5]; [20],> 125 mg/kg/day
same,NEL,rat [5]; [20],< 125 mg/kg/day
same,NOAEL,rat [5]; [20],≥ 125 mg/kg/day
same,LEL,rat [5]; [21],125 mg/kg/day
same,LOAEL,rat [5]; [21],> 125 mg/kg/day
same,NEL,rat [5]; [21],< 125 mg/kg/day
same,NOAEL,rat [5]; [21],≥ 125 mg/kg/day
same,LEL,rabbit [6],12.5 mg/kg/day
same,LOAEL,rabbit [6],> 50 mg/kg/day
same,NEL,rabbit [6],< 12.5 mg/kg/day
same,NOAEL,rabbit [6],≥ 50 mg/kg/day
same,LEL,hamster; [20],156 mg/kg/day
same,LOAEL,hamster; [20],> 156 mg/kg/day
same,NEL,hamster; [20],< 156 mg/kg/day
same,NOAEL,hamster; [20],≥ 156 mg/kg/day
same,LEL,hamster; [22],156 mg/kg/day
same,LOAEL,hamster; [22],> 156 mg/kg/day
same,NEL,hamster; [22],< 156 mg/kg/day
same,NOAEL,hamster; [22],≥ 156 mg/kg/day
Nc1cc2c3c(c1)C(c1ccccc1)=N[C@@H](NC(=O)c1cccnc1)C(=O)N3CC2 [CI-1044],LOAEL,rat [7],> 50 mg/kg/day
same,LEL,rabbit [8]; [23],10 mg/kg/day
same,NEL,rabbit [8]; [23],< 10 mg/kg/day
same,LOAEL,"rabbit [8]; group: developmental, developmental / developmental malformation / general / [other] + systemic / in life observation / body weight / fetal weight",> 150 mg/kg/day
same,LEL,rabbit [8]; [24],10 mg/kg/day
same,NEL,rabbit [8]; [24],< 10 mg/kg/day
same,LOAEL,"rabbit [8]; group: maternal, systemic / hematology / lymphocyte / lymphocyte + reproductive / reproductive performance / aborted / aborted + systemic / in life …",> 150 mg/kg/day
"O=C1NC(=O)C(c2ccccc2)(c2ccccc2)N1 [5,5-Diphenylhydantoin]",LOAEL,rat [9]; [25],40 mg/kg/day
same,NEL,rat [9]; [25],4 mg/kg/day
same,NOAEL,rat [9]; [25],12 mg/kg/day
same,LEL,rat [9]; [20],12 mg/kg/day
same,LEL,rat [9]; [26],120 mg/kg/day
same,LOAEL,rat [9]; [26],120 mg/kg/day
same,NEL,rat [9]; [26],40 mg/kg/day
same,NOAEL,rat [9]; [26],40 mg/kg/day
"CCC(O)CO (centres undefined) [1,2-Butanediol]",LEL,rat [10],300 mg/kg/day
same,LOAEL,rat [10],300 mg/kg/day
same,NEL,rat [10],100 mg/kg/day
same,NOAEL,rat [10],100 mg/kg/day
COc1ccc(C(C)(C)C)cc1CN[C@H]1C2CCN(CC2)[C@H]1C(c1ccccc1)c1ccccc1,LEL,rat [11],150 mg/kg/day
same,LEL,rat [12]; [27],150 mg/kg/day
same,LOAEL,rat [12]; [27],> 150 mg/kg/day
same,NOAEL,rat [12]; [27],≥ 150 mg/kg/day
same,LEL,rat [12]; [18],75 mg/kg/day
same,LOAEL,rat [12]; [18],> 150 mg/kg/day
same,NEL,rat [12]; [18],15 mg/kg/day
same,NOAEL,rat [12]; [18],≥ 150 mg/kg/day
same,LEL,rabbit [13],150 mg/kg/day
